The text below walks through data of US11618753B2 (priority 2018, dated 2023).

Protein sequences, listed by entry. Tags and fused reporters are not part of them. Lines headed by an entry give the natural chain unless they say otherwise; changes in a name come on top.
UniProt O00329: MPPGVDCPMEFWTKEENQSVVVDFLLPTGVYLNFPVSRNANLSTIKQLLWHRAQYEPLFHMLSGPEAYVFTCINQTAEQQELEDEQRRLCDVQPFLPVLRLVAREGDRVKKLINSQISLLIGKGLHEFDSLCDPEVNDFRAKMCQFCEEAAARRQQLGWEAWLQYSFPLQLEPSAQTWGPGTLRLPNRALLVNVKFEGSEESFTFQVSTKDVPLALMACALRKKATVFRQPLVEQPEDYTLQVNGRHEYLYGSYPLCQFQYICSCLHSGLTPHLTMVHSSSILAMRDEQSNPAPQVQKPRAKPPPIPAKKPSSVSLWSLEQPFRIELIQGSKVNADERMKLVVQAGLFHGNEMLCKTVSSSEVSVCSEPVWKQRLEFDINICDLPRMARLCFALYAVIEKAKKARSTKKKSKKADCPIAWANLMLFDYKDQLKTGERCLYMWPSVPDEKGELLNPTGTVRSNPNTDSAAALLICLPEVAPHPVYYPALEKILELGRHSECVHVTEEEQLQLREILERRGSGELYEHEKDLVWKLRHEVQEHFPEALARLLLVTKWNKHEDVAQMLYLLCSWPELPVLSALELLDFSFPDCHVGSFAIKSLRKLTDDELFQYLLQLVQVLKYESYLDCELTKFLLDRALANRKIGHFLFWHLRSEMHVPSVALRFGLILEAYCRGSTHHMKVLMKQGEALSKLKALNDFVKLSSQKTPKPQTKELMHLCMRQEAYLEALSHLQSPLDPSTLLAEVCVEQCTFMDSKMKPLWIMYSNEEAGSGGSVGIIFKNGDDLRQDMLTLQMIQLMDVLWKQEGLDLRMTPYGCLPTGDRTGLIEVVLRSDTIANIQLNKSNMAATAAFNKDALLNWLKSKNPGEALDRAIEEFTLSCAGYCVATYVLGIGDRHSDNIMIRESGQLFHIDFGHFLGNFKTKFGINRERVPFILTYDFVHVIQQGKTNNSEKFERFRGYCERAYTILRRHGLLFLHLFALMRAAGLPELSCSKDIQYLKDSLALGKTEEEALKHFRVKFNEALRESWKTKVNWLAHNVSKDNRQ

One may read the IC50 as the concentration that gives 50% inhibition.

Structures are written as SMILES.

The test addresses GST-tagged PIK3Cδ in complex with PIK3R1 (Homo sapiens (Human), UniProt O00329). Description: biochemical.
As to `COc1ncc(-c2cc(CN3CCC(F)(F)CC3)c3c(N)ncnn23)cc1C(=O)N[C@@H]1CN(C(=O)c2ccncc2)C[C@@H]1F` [Example 1237, 5-{4-amino-5-[(4,4-difluoropiperidin-1-yl)methyl]pyrrolo[2,1-f][1,2,4]triazin-7-yl}-N-[(3R,4S)-4-fluoro-1-(pyridine-4-carbonyl)pyrrolidin-3-yl]-2-methoxypyridine-3-carboxamide], the IC50 was > 15 µM. Take `COc1ncc(-c2cc(CN3CCC(F)(F)CC3)c3c(N)ncnn23)cc1C(=O)N[C@@H]1CN(C(=O)c2ccc(Cl)cc2)C[C@@H]1F` [Example 1238, 5-{4-amino-5-[(4,4-difluoropiperidin-1-yl)methyl]pyrrolo[2,1-f][1,2,4]triazin-7-yl}-N-[(3R,4S)-1-(4-chlorobenzoyl)-4-fluoropyrrolidin-3-yl]-2-methoxypyridine-3-carboxamide]: the IC50 was > 15 µM.

Regarding `COc1ncc(-c2cc(CN3CCC(F)(F)CC3)c3c(N)ncnn23)cc1C(=O)N[C@@H]1CN(C(=O)c2cccc(F)c2)C[C@@H]1F` [Example 1239, 5-{4-amino-5-[(4,4-difluoropiperidin-1-yl)methyl]pyrrolo[2,1-f][1,2,4]triazin-7-yl}-N-[(3R,4S)-4-fluoro-1-(3-fluorobenzoyl)pyrrolidin-3-yl]-2-methoxypyridine-3-carboxamide], the IC50 was > 15 µM.

Consider `COc1ncc(-c2cc(CN3CCC(F)(F)CC3)c3c(N)ncnn23)cc1C(=O)N[C@@H]1CN(C(=O)c2ccccc2Cl)C[C@@H]1F` [Example 1240, 5-{4-amino-5-[(4,4-difluoropiperidin-1-yl)methyl]pyrrolo[2,1-f][1,2,4]triazin-7-yl}-N-[(3R,4S)-1-(2-chlorobenzoyl)-4-fluoropyrrolidin-3-yl]-2-methoxypyridine-3-carboxamide], for which the IC50 is > 15 µM. In the case of `COc1ncc(-c2cc(CN3CCC(F)(F)CC3)c3c(N)ncnn23)cc1C(=O)N[C@@H]1CN(C(=O)c2cc(F)ccc2F)C[C@@H]1F` [Example 1241, 5-{4-amino-5-[(4,4-difluoropiperidin-1-yl)methyl]pyrrolo[2,1-f][1,2,4]triazin-7-yl}-N-[(3R,4S)-1-(2,5-difluorobenzoyl)-4-fluoropyrrolidin-3-yl]-2-methoxypyridine-3-carboxamide] it was > 15 µM. In the case of `COc1ncc(-c2cc(CN3CCC(F)(F)CC3)c3c(N)ncnn23)cc1C(=O)N[C@@H]1CN(C(=O)c2c(F)cccc2F)C[C@@H]1F` [Example 1242, 5-{4-amino-5-[(4,4-difluoropiperidin-1-yl)methyl]pyrrolo[2,1-f][1,2,4]triazin-7-yl}-N-[(3R,4S)-1-(2,6-difluorobenzoyl)-4-fluoropyrrolidin-3-yl]-2-methoxypyridine-3-carboxamide] it was > 15 µM; in that of `COc1ncc(-c2cc(CN3CCC(F)(F)CC3)c3c(N)ncnn23)cc1C(=O)N[C@@H]1CN(C(=O)c2c(F)cncc2F)C[C@@H]1F` [Example 1243, 5-{4-amino-5-[(4,4-difluoropiperidin-1-yl)methyl]pyrrolo[2,1-f][1,2,4]triazin-7-yl}-N-[(3R,4S)-1-(3,5-difluoropyridine-4-carbonyl)-4-fluoropyrrolidin-3-yl]-2-methoxypyridine-3-carboxamide], > 15 µM. With `COc1ncc(-c2cc(CN3CCC(F)(F)CC3)c3c(N)ncnn23)cc1C(=O)N[C@@H]1CN(C(=O)c2ncccc2Cl)C[C@@H]1F` [Example 1244, 5-{4-amino-5-[(4,4-difluoropiperidin-1-yl)methyl]pyrrolo[2,1-f][1,2,4]triazin-7-yl}-N-[(3R,4S)-1-(3-chloropyridine-2-carbonyl)-4-fluoropyrrolidin-3-yl]-2-methoxypyridine-3-carboxamide], the IC50 was > 15 µM. Take `COc1ncc(-c2cc(CN3CCC(F)(F)CC3)c3c(N)ncnn23)cc1C(=O)N[C@@H]1CN(C(=O)C2(F)CC2)C[C@@H]1F` [Example 1245, 5-{4-amino-5-[(4,4-difluoropiperidin-1-yl)methyl]pyrrolo[2,1-f][1,2,4]triazin-7-yl}-N-[(3R,4S)-4-fluoro-1-(1-fluorocyclopropanecarbonyl)pyrrolidin-3-yl]-2-methoxypyridine-3-carboxamide]: the IC50 is > 15 µM.

Regarding `COc1ncc(-c2cc(CN3CCC(F)(F)CC3)c3c(N)ncnn23)cc1C(=O)N[C@@H]1CN(C(=O)CC(C)(O)C(F)(F)F)C[C@@H]1F` (stereo partly drawn) [Example 1246, 5-{4-amino-5-[(4,4-difluoropiperidin-1-yl)methyl]pyrrolo[2,1-f][1,2,4]triazin-7-yl}-N-[(3R,4S)-4-fluoro-1-(4,4,4-trifluoro-3-hydroxy-3-methylbutanoyl)pyrrolidin-3-yl]-2-methoxypyridine-3-carboxamide], the IC50 is > 15 µM. Consider `COc1ncc(-c2cc(CN3CCC(F)(F)CC3)c3c(N)ncnn23)cc1C(=O)N[C@@H]1CN(C(=O)CC(C)C)C[C@@H]1F` [Example 1247, 5-{4-amino-5-[(4,4-difluoropiperidin-1-yl)methyl]pyrrolo[2,1-f][1,2,4]triazin-7-yl}-N-[(3R,4S)-4-fluoro-1-(3-methylbutanoyl)pyrrolidin-3-yl]-2-methoxypyridine-3-carboxamide], for which the IC50 was > 15 µM. In the case of `COc1ncc(-c2cc(CN3CCC(F)(F)CC3)c3c(N)ncnn23)cc1C(=O)N[C@@H]1CN(C(=O)c2ccnc(C)c2)C[C@@H]1F` [Example 1248, 5-{4-amino-5-[(4,4-difluoropiperidin-1-yl)methyl]pyrrolo[2,1-f][1,2,4]triazin-7-yl}-N-[(3R,4S)-4-fluoro-1-(2-methylpyridine-4-carbonyl)pyrrolidin-3-yl]-2-methoxypyridine-3-carboxamide], the IC50 was > 15 µM.

On to `COc1ncc(-c2cc(CN3CCC(F)(F)CC3)c3c(N)ncnn23)cc1C(=O)N[C@@H]1CN(C(=O)c2ccncc2F)C[C@@H]1F` [Example 1250, 5-{4-amino-5-[(4,4-difluoropiperidin-1-yl)methyl]pyrrolo[2,1-f][1,2,4]triazin-7-yl}-N-[(3R,4S)-4-fluoro-1-(3-fluoropyridine-4-carbonyl)pyrrolidin-3-yl]-2-methoxypyridine-3-carboxamide], for which the IC50 is > 15 µM. `COc1ncc(-c2cc(CN3CCC(F)(F)CC3)c3c(N)ncnn23)cc1C(=O)N[C@@H]1CN(C(=O)c2c(F)cc(F)cc2F)C[C@@H]1F` [Example 1251, 5-{4-amino-5-[(4,4-difluoropiperidin-1-yl)methyl]pyrrolo[2,1-f][1,2,4]triazin-7-yl}-N-[(3R,4S)-4-fluoro-1-(2,4,6-trifluorobenzoyl)pyrrolidin-3-yl]-2-methoxypyridine-3-carboxamide]: the IC50 was > 15 µM. As for `COc1ncc(-c2cc(CN3CCC(F)(F)CC3)c3c(N)ncnn23)cc1C(=O)N[C@@H]1CN(C(=O)c2ccccn2)C[C@@H]1F` [Example 1254, 5-{4-amino-5-[(4,4-difluoropiperidin-1-yl)methyl]pyrrolo[2,1-f][1,2,4]triazin-7-yl}-N-[(3R,4S)-4-fluoro-1-(pyridine-2-carbonyl)pyrrolidin-3-yl]-2-methoxypyridine-3-carboxamide], the IC50 is > 15 µM. For the molecule `COc1ncc(-c2cc(CN3CCC(F)(F)CC3)c3c(N)ncnn23)cc1C(=O)N[C@@H]1CN(C(=O)c2cnccc2C(F)(F)F)C[C@@H]1F` [Example 1255, 5-{4-amino-5-[(4,4-difluoropiperidin-1-yl)methyl]pyrrolo[2,1-f][1,2,4]triazin-7-yl}-N-[(3R,4S)-4-fluoro-1-[4-(trifluoromethyl)pyridine-3-carbonyl]pyrrolidin-3-yl]-2-methoxypyridine-3-carboxamide], the IC50 was > 15 µM. For `COc1ncc(-c2cc(CN3CCC(F)(F)CC3)c3c(N)ncnn23)cc1C(=O)N[C@@H]1CN(C(=O)c2cscn2)C[C@@H]1F` [Example 1256, 5-{4-amino-5-[(4,4-difluoropiperidin-1-yl)methyl]pyrrolo[2,1-f][1,2,4]triazin-7-yl}-N-[(3R,4S)-4-fluoro-1-(1,3-thiazole-4-carbonyl)pyrrolidin-3-yl]-2-methoxypyridine-3-carboxamide], the IC50 was > 15 µM. For `COc1ncc(-c2cc(CN3CCC(F)(F)CC3)c3c(N)ncnn23)cc1C(=O)N[C@@H]1CN(C(=O)CC(C)C(F)(F)F)C[C@@H]1F` (stereo partly drawn) [Example 1258, 5-{4-amino-5-[(4,4-difluoropiperidin-1-yl)methyl]pyrrolo[2,1-f][1,2,4]triazin-7-yl}-N-[(3R,4S)-4-fluoro-1-(4,4,4-trifluoro-3-methylbutanoyl)pyrrolidin-3-yl]-2-methoxypyridine-3-carboxamide], the IC50 was > 15 µM. Consider `COc1ncc(-c2cc(CN3CCC(F)(F)CC3)c3c(N)ncnn23)cc1C(=O)N[C@@H]1CN(C(=O)c2cc(C)ncc2F)C[C@@H]1F` [Example 1259, 5-{4-amino-5-[(4,4-difluoropiperidin-1-yl)methyl]pyrrolo[2,1-f][1,2,4]triazin-7-yl}-N-[(3R,4S)-4-fluoro-1-(5-fluoro-2-methylpyridine-4-carbonyl)pyrrolidin-3-yl]-2-methoxypyridine-3-carboxamide], for which the IC50 was > 15 µM. Turning to `COc1ncc(-c2cc(CN3CCC(F)(F)CC3)c3c(N)ncnn23)cc1C(=O)N[C@@H]1CN(C(=O)C(C)(C)O)C[C@@H]1F` [Example 1260, 5-{4-amino-5-[(4,4-difluoropiperidin-1-yl)methyl]pyrrolo[2,1-f][1,2,4]triazin-7-yl}-N-[(3R,4S)-4-fluoro-1-(2-hydroxy-2-methylpropanoyl)pyrrolidin-3-yl]-2-methoxypyridine-3-carboxamide], the IC50 was > 15 µM. In the case of `COc1ncc(-c2cc(CN3CCC(F)(F)CC3)c3c(N)ncnn23)cc1C(=O)N[C@@H]1CN(C(=O)c2ccc(F)c(F)c2)C[C@@H]1F` [Example 1262, 5-{4-amino-5-[(4,4-difluoropiperidin-1-yl)methyl]pyrrolo[2,1-f][1,2,4]triazin-7-yl}-N-[(3R,4S)-1-(3,4-difluorobenzoyl)-4-fluoropyrrolidin-3-yl]-2-methoxypyridine-3-carboxamide] it was > 15 µM; in that of `COc1ncc(-c2cc(CN3CCC(F)(F)CC3)c3c(N)ncnn23)cc1C(=O)N[C@@H]1CN(C(=O)c2ccc(F)cn2)C[C@@H]1F` [Example 1264, 5-{4-amino-5-[(4,4-difluoropiperidin-1-yl)methyl]pyrrolo[2,1-f][1,2,4]triazin-7-yl}-N-[(3R,4S)-4-fluoro-1-(5-fluoropyridine-2-carbonyl)pyrrolidin-3-yl]-2-methoxypyridine-3-carboxamide], > 15 µM.
